Source: patent publication US20230407304A1, “USE OF MICRORNA INHIBITION TO PREVENT AND TREAT OSTEOARTHRITIS AND OTHER INFLAMMATORY DISEASES” (VIRGINIA COMMONWEALTH UNIVERSITY, priority 2020, published 2023)

Tested on: rat articular chondrocytes (rArCs)
Assay: WNT/β-catenin agonist or antagonist treatment of rArCs with or without IL-1β
Format: cell-based

| Structure (SMILES) | MMP-13 production compared to control groups | total DNA | PGE2 production |
| --- | --- | --- | --- |
| Cn1ncnc2c(=O)n(C)c(=O)nc1-2 [PKF, PKF-118-310] | no difference | but not 0.1 μM or 0.5 μM PKF | – |
| [Cl-].[Li+] [LiCl, lithium chloride] | – | – | A similar trend was seen |
